Target: MASP-2 (CCP1-CCP2-SP) (Homo sapiens (Human), UniProt O00187)
Assay: Enzymatic Assay for MASP-2
Assay type: biochemical

Chains of the proteins cited; added tags and fusions are not shown. Residues count along the entry.
UniProt O00187, 445-686 limits assumed: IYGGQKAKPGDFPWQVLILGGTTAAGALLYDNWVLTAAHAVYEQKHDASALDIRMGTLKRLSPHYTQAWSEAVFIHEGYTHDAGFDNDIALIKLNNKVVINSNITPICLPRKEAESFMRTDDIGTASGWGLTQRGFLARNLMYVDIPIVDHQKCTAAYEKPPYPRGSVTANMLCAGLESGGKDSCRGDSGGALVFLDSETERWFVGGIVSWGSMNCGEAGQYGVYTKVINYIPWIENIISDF

Question: `COC(=O)CCCCCN[C@H](CCc1ccccc1)C(=O)N[C@@H](C)C(=O)NCc1ccc(C(=N)N)cc1` was tested. Which “MASP-2 vs. thrombin selectivity” value did it give?
Answer: Its value is “* (1.0 to 5.0-fold)”.
